## Apparent affinities of Ab-14 variants for a coronavirus HR2 peptide

All variants were tested on one target, the spike HR2 peptide PDVDLGDISGINAS (SARS-CoV-2).

Parent scFv Ab-14: VH joined to VL by a 15-residue (Gly4Ser)3 linker. Changes lie in the heavy chain CDRs alone.
VH: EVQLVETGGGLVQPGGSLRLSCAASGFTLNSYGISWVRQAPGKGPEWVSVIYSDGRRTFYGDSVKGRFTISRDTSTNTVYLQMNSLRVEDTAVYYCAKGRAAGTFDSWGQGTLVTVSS
VL: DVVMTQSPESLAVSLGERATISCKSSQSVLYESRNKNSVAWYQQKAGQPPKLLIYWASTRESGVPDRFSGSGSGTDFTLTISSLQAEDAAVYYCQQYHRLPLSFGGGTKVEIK

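Phage display of a naive human antibody library on the peptide gave the parent. Library AAYL49 holds single substitutions and randomly drawn double and triple substitutions in the CDRs. The assay is AlphaSeq: two haploid yeast populations carry antibody and antigen on their surface. Pairs that bind mate more often; barcode pairs of the diploids are counted by sequencing. A regression on co-assayed BCL2-family reference pairs converts the normalised counts of each replicate to an apparent Kd. Mating was done three times.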

Each variant is given by its three heavy chain CDRs, as the data file delimits them; those of the parent are GFTLNSYGIS, VIYSDGRRTFYGDSVK, GRAAGTFDS. The read-out is the apparent dissociation constant on a log10 scale (nM): the lower, the stronger. Averages over replicates are reported, and they cover detected replicates only. "nd" marks a missing value. The strain was present, yet no cells mated with the target were sequenced in that replicate, which points to weak or no binding. Parent in this assay: reference entry 0.65, copy in this library 4.11 (one replicate of three). Empty control strains, which show no peptide, gave a signal in 15% of pairings with library AAYL49; the median was 4.06 and 95% of these signals were weaker than 2.83. No background was subtracted. Also given: how often the same scFv was detected with the empty control strains.

With GFTLNSYGIS, VIYSDGRRTFYGDPVW, GRAAGTHDS the result was nd, nd, nd (controls 0 of 9).
With GFTSNSYGIS, VIYSDGRRTFYGDSVK, GRAASTFDA the result was 3.62, 2.45, nd (mean 3.03; controls 0 of 9).
With GFTLNSYGIS, VIYSDGRRTYYGDSPC, GRAAGTFDS the result was 5.93, 4.10, nd (mean 5.01; controls 2 of 9).
With GFTLNSYGIS, TIYSFGRRTFYGDSVK, GRAAGTFES the result was nd, nd, 4.76 (controls 1 of 9).
With GFTLNSYNIS, VIYSDGRSTFYGDSVK, LRAAGTFDS the result was 5.02, nd, 5.71 (mean 5.37; controls 1 of 9).
With GFTLNSYGIS, VIYADGRLTFYGDSVK, GRAAGTFDS the result was 2.18, 2.10, 2.12 (mean 2.13; controls 3 of 9).
With GFTLNSCGIS, VNYSDGRRTFYGDSVK, GRAAGRFDS the result was nd, nd, nd (controls 0 of 9).
With GFTLNSYGIS, VIYSDGRRTFYGDSVK, HRKASTFDS the result was nd, 4.72, 5.73 (mean 5.23; controls 1 of 9).
With GFTLFSTGIS, VIPSDGRRTFYGDSVK, GRAAGTFDS the result was nd, nd, nd (controls 0 of 9).
With GFTLNSYGIS, VIYSGGRRTFYGDSVK, GRAADTFDS the result was nd, nd, nd (controls 0 of 9).
With GFTHNSYGRS, VIYSDGRRTFYGDSVK, GRAAGFFDS the result was nd, nd, nd (controls 3 of 9).
With GFTLNSMGIS, VIYSDGRRTFYGDSVK, GRAASTFDS the result was nd, 3.14, nd (controls 0 of 9).
With GFTLNSYGIS, VLYSDGRRTAYGDSVK, GRAAGTFVS the result was 0.59, 0.77, 0.70 (mean 0.69; controls 3 of 9).
With GFTLGSYGIS, VIYSDGRRTFYGDSVK, GRAAHTEDS the result was 6.10, 4.03, 4.26 (mean 4.80; controls 4 of 9).
With GGTLNTYGIS, TIYSDGRRTFYGDSVK, GRAAGTFDS the result was 3.77, 3.94, 4.14 (mean 3.95; controls 1 of 9).
With GFTLNSYGIS, VIYSDGRRIFYGDSEK, GRAAGTADS the result was nd, nd, nd (controls 0 of 9).
With GTTLNSYGIS, VIYSDRRRTFYGESVK, GRAAGTFDS the result was nd, nd, nd (controls 1 of 9).
With GFTLNSYGHS, VIYSDGRRTFYGDSVK, GRAAPTFIS the result was nd, nd, 4.98 (controls 2 of 9).
With GFTLNSYGIS, VIKSYGRRTFYGDSVK, GRKAGTFDS the result was nd, nd, nd (controls 5 of 9).
With GFTLNSYGIS, VIASDKRRTFYGDSVK, GRAAGTFQS the result was nd, nd, nd (controls 0 of 9).
With GFTLNSYGIS, VITSDGRRTFYGDNVK, GRAAGQFDS the result was nd, 4.87, 3.38 (mean 4.13; controls 1 of 9).
With GFTLNSYGIS, VIYSDGRRTGYKDSVK, GRAAGNFDS the result was 0.56, 0.85, 0.89 (mean 0.76; controls 3 of 9).
With GFTLNSYGIS, VIYSDFRRTFYGDTVK, GRAAGTFSS the result was nd, nd, nd (controls 1 of 9).
With GMTLNSYGIS, VIYSDGRRTFYCDSVK, GRAAGTPDS the result was nd, nd, nd (controls 0 of 9).
With GFTLNSCGIS, VIYSDGRRTSYMDSVK, GRAAGTFDS the result was 1.07, 1.13, 1.43 (mean 1.21; controls 1 of 9).
With GFTLNSYGIS, VIYSHGRRTFYGKSVK, GAAAGTFDS the result was nd, nd, nd (controls 0 of 9).
With GFTLNSYGIS, VVYSDKRRTFYGDSVK, GRAAGTFDS the result was 3.66, nd, nd (controls 0 of 9).
With GFTLNSYGIS, VIYSDSRRTFYGDSDK, GRAMGTFDS the result was 4.43, nd, nd (controls 0 of 9).
With GFTLNSYGIS, VIYSDFRRTFYGDSCK, GRAAGTFDK the result was nd, 5.31, 2.95 (mean 4.13; controls 2 of 9).
With GFYLNSYMIS, VIYHDGRRTFYGDSVK, GRAAGTFDS the result was nd, 3.46, nd (controls 3 of 9).
With GFTLNSYGIS, VIYSDGRRRFQGDSVK, GRAAGTFDS the result was 4.55, nd, nd (controls 1 of 9).
With GFTLNYYGFS, VIYSDGRRTFYGDSVP, GRAAGTFDS the result was nd, nd, nd (controls 1 of 9).
With GFTLNSYGIS, VIYGDHRRTFYGDSVK, GRAAGQFDS the result was nd, nd, nd (controls 0 of 9).
With GFTLNSYAFS, VIYSDGRRTFYGDSVF, GRAAGTFDS the result was nd, nd, nd (controls 2 of 9).
With GFTMNSYGDS, VIYSDGRRTFYGDSVK, GRAAGTCDS the result was nd, nd, nd (controls 0 of 9).
With GFTLNSYGIS, CIYSDGRRTFGGDSVI, GRAAGTFDS the result was nd, nd, nd (controls 1 of 9).

Repeated from above, the 6 best binders with a signal in all replicates:

GFTLNSYGIS, VLYSDGRRTAYGDSVK, GRAAGTFVS: 0.59, 0.77, 0.70 (mean 0.69; controls 3 of 9).
GFTLNSYGIS, VIYSDGRRTGYKDSVK, GRAAGNFDS: 0.56, 0.85, 0.89 (mean 0.76; controls 3 of 9).
GFTLNSCGIS, VIYSDGRRTSYMDSVK, GRAAGTFDS: 1.07, 1.13, 1.43 (mean 1.21; controls 1 of 9).
GFTLNSYGIS, VIYADGRLTFYGDSVK, GRAAGTFDS: 2.18, 2.10, 2.12 (mean 2.13; controls 3 of 9).
GGTLNTYGIS, TIYSDGRRTFYGDSVK, GRAAGTFDS: 3.77, 3.94, 4.14 (mean 3.95; controls 1 of 9).
GFTLGSYGIS, VIYSDGRRTFYGDSVK, GRAAHTEDS: 6.10, 4.03, 4.26 (mean 4.80; controls 4 of 9).

Values reported by Engelhart et al. 2022, doi:10.1038/s41597-022-01779-4 (FLAb copy).